Only a part is listed here, and it is no random draw. The source made the active and inactive calls. How the source made its calls: active means hit-call score of the fitted dose curve at least 0.9, where 1 is the maximum; inactive means score below 0.9.
Read-out: Early growth response protein 1 (EGR1) transcription factor, EGR1 (gene 1958)
Assay: LTEA_HepaRG_EGR1: Life Technologies and Expression Analysis (LTEA) Assay for Early growth response protein 1 (EGR1) transcription factor using HepaRG (AID 2283490)
Settings: actives raise or lower the signal; mRNA level, 48 h
Summary of the method: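 EGR1 expression change in human HepaRG after 48 h chemical exposure, assessed by housekeeping-normalized qRT-PCR; concentration-response up to 100 uM, fitted in both directions against DMSO controls.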

Amino acid sequences for entries named in this document (tags omitted).
UniProt P24462, whole entry, looked up: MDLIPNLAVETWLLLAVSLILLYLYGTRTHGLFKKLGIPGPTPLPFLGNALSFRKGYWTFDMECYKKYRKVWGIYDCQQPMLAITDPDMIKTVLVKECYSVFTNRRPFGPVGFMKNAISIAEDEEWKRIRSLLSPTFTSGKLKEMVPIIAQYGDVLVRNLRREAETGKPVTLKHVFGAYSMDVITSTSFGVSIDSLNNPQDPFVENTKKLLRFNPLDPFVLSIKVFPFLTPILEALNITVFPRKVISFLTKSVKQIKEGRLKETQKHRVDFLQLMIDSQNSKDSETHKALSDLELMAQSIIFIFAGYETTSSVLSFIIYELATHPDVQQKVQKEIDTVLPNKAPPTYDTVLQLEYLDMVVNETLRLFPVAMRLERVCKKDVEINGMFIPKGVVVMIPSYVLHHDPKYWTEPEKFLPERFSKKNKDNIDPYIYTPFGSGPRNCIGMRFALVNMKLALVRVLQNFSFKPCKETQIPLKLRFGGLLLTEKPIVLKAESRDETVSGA

Row | SMILES | outcome | AC50
1 | CN(C(=O)Cc1cccc2occc12)[C@H]1CC[C@@]2(CCCO2)C[C@@H]1N1CCCC1 | inactive | 
2 | Cc1cc([N+](=O)[O-])cc([N+](=O)[O-])c1O | inactive | 
3 | CC(C)OP(=S)(OC(C)C)SCCNS(=O)(=O)c1ccccc1 |  | active: 81 µM
4 | O=C1C2CC=CCC2C(=O)N1SC(Cl)(Cl)C(Cl)Cl (configuration not stated) | inactive | 

Read-out: Ezrin (EZR), EZR (gene 7430)
Assay: LTEA_HepaRG_EZR: Life Technologies and Expression Analysis (LTEA) Assay for Ezrin (EZR) using HepaRG (AID 2283491)
Settings: actives raise or lower the signal; mRNA level, 48 h
Summary of the method: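 Read-out is EZR transcript level by qRT-PCR, normalized to three housekeeping genes and fitted bidirectionally against the DMSO control. Human HepaRG cells received test chemicals for 48 h at eight half-log concentrations up to 100 uM in 0.5% DMSO.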

Row | SMILES | outcome | AC50
5 | CN(C(=O)Cc1cccc2occc12)[C@H]1CC[C@@]2(CCCO2)C[C@@H]1N1CCCC1 | inactive | 
6 | Cc1cc([N+](=O)[O-])cc([N+](=O)[O-])c1O |  | active: 50 µM
7 | CC(C)OP(=S)(OC(C)C)SCCNS(=O)(=O)c1ccccc1 | inactive | 
8 | O=C1C2CC=CCC2C(=O)N1SC(Cl)(Cl)C(Cl)Cl (configuration not stated) | inactive | 

Read-out: Cytochrome P450 3A7 (Homo sapiens) (UniProt P24462)
Assay: LTEA_HepaRG_CYP3A7: Life Technologies and Expression Analysis (LTEA) Assay for CYP3A7 using HepaRG (AID 2283492)
Settings: actives raise or lower the signal; mRNA level, 48 h
Summary of the method: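 Cells were thawed, plated, cultured 48 h, then treated for a further 48 h with chemicals (eight-point half-log series from 100 uM, 0.5% DMSO). RNA was isolated and CYP3A7 expression quantified by qRT-PCR normalised to ACTB, GAPDH and POLR2A.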

Row | SMILES | AC50 | outcome
9 | CN(C(=O)Cc1cccc2occc12)[C@H]1CC[C@@]2(CCCO2)C[C@@H]1N1CCCC1 | active: 39.8 µM | 
10 | Cc1cc([N+](=O)[O-])cc([N+](=O)[O-])c1O | active: 12.3 µM | 
11 | CC(C)OP(=S)(OC(C)C)SCCNS(=O)(=O)c1ccccc1 | active: 79.8 µM | 
12 | O=C1C2CC=CCC2C(=O)N1SC(Cl)(Cl)C(Cl)Cl (configuration not stated) |  | inactive
